Literature values as cited in patent US9907765B2, “Treatment of connective tissue diseases of the skin” (Cipher Pharmaceuticals, Inc., priority 2005, dated 2018).

Tested on: skin of humans
Conditions: in vivo; cited from earlier work

Substance: 1-[[(1,1-Dimethylethyl)amino]methyl]-4-hydroxy-1,3-benzenedimethanol [Salbutamol]
- topical sensitization / contact dermatitis reactions: topical sensitizer that causes contact dermatitis reactions
